Screening data as filed in PubChem BioAssay.
miR-21 reporter: miR-21 reporter, rising signal; Potency, µM (doses to about 38.3 µM); HeLa miR-21 FLuc reporter, luciferase, 48 h; 340,000 tested, under 10 active; active = well fitted rising curve with a large enough effect; inconclusive = small, poorly fitted or top-dose-only effect; inactive = no such curve, though single readings can be large or run the other way;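 further: miR-21 action dims this reporter so a rising signal means less miR-21 action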
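Luminescence from a firefly luciferase reporter carrying a miR-21 binding site downstream, stably expressed under a CMV promoter in HeLa cells that make miR-21 endogenously, reports miRNA modulation after 48 h compound exposure up to approximately 40uM final.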
IL2 activator: IL-2 activation. IL-2 activation reporter assay, cell-based qHTS; stimulated with anti-CD3/CD4/CD28 beads; in transgenic mouse T cells. activation, % (series mostly up to about 46 µM). 0.065% of 360,000 active; in the data active = activation above about 50%; inconclusive = mostly about 30% to 49%
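Readout is EGFP and DsRed signal by fluorescent plate cytometry after 18 h at 37 degrees C. Transgenic mouse T cells (750/well) received compound for 60 min before bead stimulation (anti-CD3, anti-CD4, anti-CD28); memory T cells served as non-tolerant control.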
ClpP mod: qHTS Assay for Activators of ClpP | purified B. subtilis ClpP, FRET peptide cleavage, 20 min | Potency, µM (series often up to 57.5 µM) | 1.9% of 340,000 active; active = well fitted falling curve with a large enough effect; inconclusive = small, poorly fitted or top-dose-only effect; inactive = no such curve, though single readings can be large or run the other way; note: the source files actives as falling curves though it sought activators and does not explain the sign; nearly all actives have a fitted effect of over 65% in size
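Buffer: 100 mM Tris/HCl pH8, 100 mM KCl, 0.05% low protease BSA, 2.5% glycerol, 0.01% Tween-20. ClpP 10 microg/mL final; 20 min RT; delta FRET normalized to ADEP and DMSO controls.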
Nrf2 activator: activators of Nrf2 (ARE) signaling; Potency, µM (highest dose often 46.1 µM), most hits filed as activators; AREc32 ARE-luciferase reporter (MCF7-derived line), luminescence, 24 h; 0.31% of 410,000 active; note: nearly all actives have a fitted effect of over 65% in size
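ARE-driven firefly luciferase activity in AREc32 cells measured after a 24 hr compound exposure at 37 deg C, using Steady-Glo reagent and a 30 min room-temperature hold.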
A549 viability: kills or reduces viability of A549 cells in Nrf2 counter-screen; 0.16% of 390,000 active; AID 504648; Potency, µM (series often up to 46 µM), usual class: inhibitors; A549 ARE-Fluc cells, CellTiter-Fluor viability, 18-24 h
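Cytotoxicity counterscreen: CellTiter-Fluor fluorescence was measured in A549 ARE_Fluc cells after 18-24 h of compound exposure in a concentration series. The subsequent BugLite luminescent read reports ARE-luciferase activity.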
Nrf2 block: Nrf2 pathway inhibition; A549 ARE-Fluc reporter, luciferase luminescence, 18-24 h; Potency, µM (titrated, usually from 46 µM), usual class: inhibitors; 2.1% of 360,000 active; note: nearly all actives have a fitted effect of over 60% in size
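Reporter: ARE-Fluc in A549. Exposure: 18-24 h, 37 °C, 5% CO2, 5% FBS OPTI-MEM. Readouts: fluorescent cytotoxicity (CellTiter-Fluor), then luminescent Nrf2 signal after BugLite.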
Large screens that a line does not name were inactive. This is a sample that favours compounds with a hit; in the whole collection about 3.7% have one here. Unless noted, calls come from the whole dose curve; as a rule, active = well fitted curve in the direction sought with a large enough effect; inconclusive = small, poorly fitted or top-dose-only effect, or another doubt; inactive = no such curve, though single readings can be large; an effect the other way counts as inactive or inconclusive.

Cc1cccn2c(=O)c3cc(C(=O)NCCN4CCOCC4)c(=N)n(CCc4ccccc4)c3nc12	ClpP mod 3.2µM, A549 viability inconclusive
CN(C(=O)CSc1nnc(COc2ccccc2)o1)c1ccccc1	none (no result: IL2 activator)
COc1ccc(NC(=O)C(OC(=O)CNC(=O)c2ccccc2)c2ccccc2)cc1F (stereo not drawn)	none (no result: miR-21 reporter, IL2 activator, ClpP mod, Nrf2 activator)
CCCCCN(CCCCC)c1ccc(/C=C/c2ccnc3ccccc23)cc1	none (no result: miR-21 reporter, IL2 activator, Nrf2 activator, A549 viability, Nrf2 block)
CCc1nc(C)cn1S(=O)(=O)c1cc(Br)ccc1OC	A549 viability inconclusive, Nrf2 block 23µM
CCOC(=O)N1CCN(c2nc(-c3cccc(OC)c3)cc(C(F)(F)F)n2)CC1	ClpP mod 28µM, Nrf2 block inconclusive
CCOC(=O)N1CCN(c2nc(-c3ccco3)cc(C(F)(F)F)n2)CC1	none
Cc1cccc(N2CCN(C(=O)C(NS(=O)(=O)c3cccs3)c3ccccc3)CC2)c1C (stereo not drawn)	Nrf2 block 9.2µM
O=C(C(NS(=O)(=O)c1cccs1)c1ccccc1)N1CCN(c2ccccc2F)CC1 (stereo not drawn)	none
Cn1c(=O)n(C)c2cc(NS(=O)(=O)c3ccc(C(C)(C)C)cc3)ccc21	Nrf2 block 10µM (no result: ClpP mod)
CCc1ccc(S(=O)(=O)Nc2cccc(C3OCCCO3)c2)cc1	Nrf2 block 10µM (no result: ClpP mod)
CCc1cccc(NS(=O)(=O)c2ccc3c(c2)n(C)c(=O)n3C)c1	Nrf2 block 13µM
CCOC(=O)c1oc2ccc(S(=O)(=O)Nc3ccc4c(c3)n(C)c(=O)n4C)cc2c1C	Nrf2 block 21µM
CCn1cc(S(=O)(=O)N2CCc3ccccc3C2)cn1	none
CCn1cc(S(=O)(=O)N2CCN(c3ccc(Cl)cc3)CC2)cn1	Nrf2 block 12µM
COc1ccc(Cl)cc1C(=O)NCC(c1ccc(N(C)C)cc1)N1CCOCC1 (stereo not drawn)	none (no result: IL2 activator, Nrf2 block)
O=C(CSc1nc(=O)n2cc(Cl)ccc2n1)Nc1ccc2c(c1)OCCO2	none (no result: miR-21 reporter)
O=C(CSc1nc(=O)n2cc(Cl)ccc2n1)Nc1ccc2c(c1)OCO2	IL2 activator 312 (no result: miR-21 reporter)
O=C(CSc1nc(-c2ccccc2)c(-c2ccccc2)[nH]1)N1CCN(S(=O)(=O)c2ccccc2)CC1	ClpP mod 28µM, Nrf2 block 16µM
O=C(CSc1nc(-c2ccccc2)c(-c2ccccc2)[nH]1)Nc1ccc2c(c1)OCO2	ClpP mod 25µM
CC(=O)c1cc(-c2ccccc2)n(CCC(=O)NC(C)c2ccccc2)c1C (stereo not drawn)	none (no result: IL2 activator, Nrf2 block)
CCCNC(=S)N1CCN(C)CC1	ClpP mod 7.1µM
Cn1c(C(c2cc3ccccc3n2C)c2cc3ccccc3n2C)cc2ccccc21	none (no result: miR-21 reporter, IL2 activator, Nrf2 activator, A549 viability, Nrf2 block)
COC(=O)c1sccc1NC(=O)Nc1cccc(OC)c1	none
COC(=O)c1sccc1NC(=O)c1ccc(Br)o1	Nrf2 activator 5.6µM
COC(=O)c1sccc1NC(=O)c1cc2c(s1)CCCC2	ClpP mod 35µM, A549 viability inconclusive, Nrf2 block inconclusive
COC(=O)c1sccc1NC(=O)c1cccc(OC)c1	Nrf2 activator 6.3µM
COC(=O)c1sccc1NC(=O)c1ccccc1	Nrf2 activator 7.1µM, Nrf2 block inconclusive (no result: ClpP mod)
COC(=O)c1sccc1NC(=O)c1ccccc1C(=O)O	none (no result: miR-21 reporter, ClpP mod)
Cc1c(O)ccc2c1OC(C)(C)CC2	none (no result: miR-21 reporter, IL2 activator, Nrf2 activator, A549 viability, Nrf2 block)
COc1cccc(N2CCN(C(=O)Cn3ncc4c(=O)oc5ccccc5c43)CC2)c1	none (no result: IL2 activator)
CC(C)(C)c1ccc(C(=O)NC2(C(F)(F)F)C(=O)Nc3c2c(=O)[nH]c(=O)n3-c2ccccc2)cc1 (stereo not drawn)	Nrf2 block inconclusive (no result: IL2 activator)
COC(=O)c1ccccc1NC(=O)COc1ccccc1[N+](=O)[O-]	Nrf2 activator 5µM, Nrf2 block inconclusive (no result: ClpP mod)
CCOc1ccccc1NC(=O)Nc1ccsc1C(=O)OC	none
COC(=O)c1sccc1NC(=O)COc1ccccc1Cl	Nrf2 activator 13µM, Nrf2 block inconclusive
CCCc1nc2sc3c(c2c(=O)[nH]1)CCCC3	none
